Reference: patent US9426996B2, “Use of benzoxaboroles as volatile antimicrobial agents on meats, plants, or plant parts” (AgroFresh Inc., priority 2013, dated 2016)

System: M. piriformis
Assay: in vitro volatile MIC assay (Example 10)
Type: cell-based
Conditions: 72 h, read-out: MIC M. piriformis

`OB1OCc2ccccc21` [Compound B, 2-(hydroxymethyl)phenylboronic acid cyclic monoester] gave an MIC of 2.2 µg/mL (≈ 16.4 µM).

In brackets after ≈: the same amount, converted by molar mass.
